The term pIC50 denotes −log10 of the IC50, conventionally taken in molar units. The low end stands for a large IC50, the high end for a small IC50.

Amino acid sequences for entries named in this document (tags omitted). A change or cut given only in a name is not applied to a line headed by its entry.
UniProt Q9BY41: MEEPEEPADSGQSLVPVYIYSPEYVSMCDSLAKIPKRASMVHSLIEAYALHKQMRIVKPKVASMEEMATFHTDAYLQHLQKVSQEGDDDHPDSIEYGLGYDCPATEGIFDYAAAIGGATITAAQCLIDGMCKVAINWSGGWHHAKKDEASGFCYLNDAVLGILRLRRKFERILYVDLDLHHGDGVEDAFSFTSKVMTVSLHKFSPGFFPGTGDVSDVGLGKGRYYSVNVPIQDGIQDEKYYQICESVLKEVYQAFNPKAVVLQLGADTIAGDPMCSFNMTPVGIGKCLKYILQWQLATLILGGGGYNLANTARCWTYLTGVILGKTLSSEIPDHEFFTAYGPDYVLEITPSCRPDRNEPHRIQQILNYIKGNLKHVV

The assay has as its target Human HDAC8 (Homo sapiens (Human), UniProt Q9BY41). The assay is described as follows: HDAC8 fluorogenic peptide deacetylation assay. Format: biochemical.

SMILES strings stand for the structures. pIC50: −log10 of the molar value.

Regarding `O=C(CCCCCCC(=O)Nc1ccccc1)NO` [SAHA, suberoylanilide hydroxamic acid, reference compound], the pIC50 was 6.47.

Source of the values: patent publication US8685992B2, “Histone deacetylase inhibitors based simultaneously on trisubstituted 1H-pyrroles and aromatic and heteroaromatic spacers” (Universidad del País Vasco, priority 2009, dated 2014).
